Source: patent publication US11155556B2, “Pyrimido-diazepinone kinase scaffold compounds and methods for treating PI3K-mediated disorders” (DANA-FARBER CANCER INSTITUTE, INC., priority 2016, dated 2021)

What was measured:
Type in all cases: cell-based
[1] = tested on: Jurkat cells; test: CellTiter-Glo proliferation / cell viability assay, Jurkat; settings: Homo sapiens, 72 h, 3 days, average of three replicates
Procedure: (§1) Proliferation assays were conducted in Jurkat or MOLT4 cell lines using Cell Titer Glo as described in product manual.
(§2) Cell viability assays were performed using CellTiter-Glo (Promega). Cells were grown in RPMI-10% FBS medium. 600 cells per well were seeded in a 96-well plate and then treated with eight doses of each compound in 3-fold dilution steps ranging from 10 um to 0.0046 uM for 3 days. Wells were imaged using a luminometer. IC50 were determined using Prism software. Data was normalized to a dimethyl sulfoxide (DMSO)-only control.

[2] = tested on: MOLT4 cells; test: CellTiter-Glo proliferation / cell viability assay, MOLT4; settings: Homo sapiens, MOLT-4, 72 h, 3 days, average of three replicates
Procedure: as §1, §2

[3] = tested on: MV4:11 cells; test: CellTiter-Glo cell viability assay, MV4:11; settings: Homo sapiens, MV4-11, 72 h, 3 days, average of three replicates
Procedure: as §2

[4] = tested on: Molm14 cells; test: CellTiter-Glo cell viability assay, Molm14; settings: Homo sapiens, MOLM-14, 72 h, 3 days, average of three replicates
Procedure: as §2

In the case of `CC[C@H](Nc1ncnc2[nH]cnc12)c1nc2cccc(F)c2c(=O)n1-c1ccccc1` [Idelalisib, reference compound], the IC50 [1] is reported as 7.9 µM, the IC50 [2] is reported as 10.6 µM and the IC50 [3] is reported as 6.3 µM. The IC50 [4] was 3.6 µM.
